# Test results as given in PMC7723054.
# This is one part of the list.
# T1: LIN28A (human?, UniProt Q9H9Z2 1-209)
# T1 sequence: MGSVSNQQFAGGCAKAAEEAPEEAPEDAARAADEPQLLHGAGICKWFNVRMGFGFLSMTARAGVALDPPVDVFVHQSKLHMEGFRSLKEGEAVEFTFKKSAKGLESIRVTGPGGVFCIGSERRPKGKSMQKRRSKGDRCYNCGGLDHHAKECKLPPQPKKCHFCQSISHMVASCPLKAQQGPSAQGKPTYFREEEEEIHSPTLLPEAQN
# T2: CIRBP (Homo sapiens, UniProt Q14011 1-172)
# T2 sequence: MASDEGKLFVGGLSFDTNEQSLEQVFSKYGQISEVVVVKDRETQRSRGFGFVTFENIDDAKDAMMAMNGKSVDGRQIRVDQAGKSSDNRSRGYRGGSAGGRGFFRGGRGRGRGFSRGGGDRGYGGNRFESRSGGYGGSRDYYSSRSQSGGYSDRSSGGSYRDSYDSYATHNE
# T3: DHX36 (Homo sapiens, UniProt Q9H2U1 1-1008)
# T3 sequence: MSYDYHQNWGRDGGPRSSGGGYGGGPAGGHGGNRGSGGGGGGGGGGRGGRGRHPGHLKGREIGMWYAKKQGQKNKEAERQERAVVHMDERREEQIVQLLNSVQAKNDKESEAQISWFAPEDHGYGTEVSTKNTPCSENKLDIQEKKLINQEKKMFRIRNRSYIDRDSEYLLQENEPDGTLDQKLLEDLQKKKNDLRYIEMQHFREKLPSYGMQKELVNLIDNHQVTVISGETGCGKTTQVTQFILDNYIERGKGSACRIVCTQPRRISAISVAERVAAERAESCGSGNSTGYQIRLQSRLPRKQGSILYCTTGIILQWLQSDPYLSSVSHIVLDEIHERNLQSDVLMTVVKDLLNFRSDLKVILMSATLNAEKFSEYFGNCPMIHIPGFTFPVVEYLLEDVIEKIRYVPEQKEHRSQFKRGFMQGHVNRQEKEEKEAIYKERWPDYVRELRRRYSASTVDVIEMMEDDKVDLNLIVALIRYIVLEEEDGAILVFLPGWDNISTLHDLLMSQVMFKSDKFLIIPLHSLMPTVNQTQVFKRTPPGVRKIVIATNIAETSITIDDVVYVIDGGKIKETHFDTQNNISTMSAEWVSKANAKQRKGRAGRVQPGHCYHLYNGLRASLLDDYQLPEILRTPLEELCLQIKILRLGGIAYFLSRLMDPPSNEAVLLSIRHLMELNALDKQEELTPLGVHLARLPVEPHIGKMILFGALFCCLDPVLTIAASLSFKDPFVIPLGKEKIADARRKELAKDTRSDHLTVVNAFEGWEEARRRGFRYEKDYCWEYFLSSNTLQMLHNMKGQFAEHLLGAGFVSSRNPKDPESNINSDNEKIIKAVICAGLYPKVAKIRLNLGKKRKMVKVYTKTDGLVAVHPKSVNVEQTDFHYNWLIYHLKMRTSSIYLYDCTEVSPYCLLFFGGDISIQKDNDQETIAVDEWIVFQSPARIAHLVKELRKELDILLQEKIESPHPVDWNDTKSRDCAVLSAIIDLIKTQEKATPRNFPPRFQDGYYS
# Experiments:
# Assay in all cases: FOREST: bead pull-down of RNA structure library v1, barcode microarray; U1A/LIN28A: 20 mM HEPES pH 7.5, 80 mM KCl, 20 mM NaCl, 10% glycerol, 2 mM DTT, 0.1 ug/uL BSA, 4 C; BG4/CIRBP/DHX36: 10 mM Tris-HCl pH 7.5, 100 mM KCl (or LiCl),; high values mean tight binding
# [1] = molecular target: T1, LIN28A
# [2] = molecular target: T2, CIRBP
# [3] = molecular target: T3, DHX36
Binder,binding signal [1] [z-score],binding signal [2] [z-score],binding signal [3] [z-score]
hsa-mir-208b (structured_RNA) RNA: GGGAAGUACGAUCGAGGGCUUAAUGUCAGGUGUACGAAGUUUCAGCUUAUGUUUCUGAUCCGAAUAUAAGCUGAAGCUUCGUGCAC,-0.469,0.522,-0.0601
hsa-mir-3591 (structured_RNA) RNA: GGGACCGGAGCCGCAGUUCUGUAGAAAGGGUGUACGAAGUUUCAGCGUUUGAUAGUUUAGACACAAACGCUGAAGCUUCGUGCAC,-0.472,0.17,-0.202
hsa-mir-378d-1 (structured_RNA) RNA: GGGAGGGAACCCGCAAACUGAUUAGCUCGGUGUACGAAGUUUCAGCUUGUUGUUAUUACUGCUGAAGCUUCGUGCAC,-0.474,-0.69,0.0706
hsa-mir-211 (structured_RNA) RNA: GGGACAAUGCAAGCGCACAUAGAAGCUUGGUGUACGAAGUUUCAGCUCGCCUAGGGCUCUGAGCAGGGCAGCUGAAGCUUCGUGCAC,-0.478,-0.67,-0.507
hsa-mir-1539 (structured_RNA) RNA: GGGAACUACAAAUCAAGCCAAGCGUGGAGGUGUACGAAGUUUCAGCAGCGCGAAAGUGCUGAAGCUUCGUGCAC,-0.479,0.834,-1.44
hsa-mir-5682 (structured_RNA) RNA: GGGACGGCUAAUCCAUCGGUAAAAUAAGGGUGUACGAAGUUUCAGCCUGCAGAGACGAGGCCUGUAGGCUGAAGCUUCGUGCAC,-0.48,-0.498,0.537
hsa-mir-190b (structured_RNA) RNA: GGGAAAUAAGAUACUACGGGAUCGUCCGGGUGUACGAAGUUUCAGCGGUUGUUUAAUUAGGAACCAACUGCUGAAGCUUCGUGCAC,-0.483,0.0367,-0.863
hsa-mir-6737 (structured_RNA) RNA: GGGAAAAUGGACAUCUAGGCAUCGCGUAGGUGUACGAAGUUUCAGCUGGAGGGGGUUUGUUUGCUUAUUCCCCUCUGCUGAAGCUUCGUGCAC,-0.484,0.189,0.724
hsa-mir-3670-3_3670-2_3670-1_3670-4 (structured_RNA) RNA: GGGAGCAGUACAACGGGUUUCUAGCCUCGGUGUACGAAGUUUCAGCCCUCACCUGCUGAGAGGCUGAAGCUUCGUGCAC,-0.493,-0.648,-0.0511
hsa-mir-2392 (structured_RNA) RNA: GGGAGAGGGUUCAAACGUUGAAUAACACGGUGUACGAAGUUUCAGCUCCUCAGACCAGGUGGCUCCCGAGCCACCCCAGGCUGUAGGGCUGAAGCUUCGUGCAC,-0.494,-0.755,-0.243
hsa-mir-1237 (structured_RNA) RNA: GGGAACUGGGAACUGCACGGUAUUAUUAGGUGUACGAAGUUUCAGCAGCGCGGCGACCGUAACUCCUGCUGAAGCUUCGUGCAC,-0.496,0.272,-0.504
hsa-mir-216b (structured_RNA) RNA: GGGAACACCUACUACUCUGGACCCCUCCGGUGUACGAAGUUUCAGCAUGUGAUGUCACUGAGGAAAUCACACGCUGAAGCUUCGUGCAC,-0.497,-0.549,-0.565
hsa-mir-549a (structured_RNA) RNA: GGGAAGCUAAUCUCUGUCGCAGCCGCUAGGUGUACGAAGUUUCAGCGUCACUGUCUCAAAUCAGUGACGCUGAAGCUUCGUGCAC,-0.501,0.258,-0.559
hsa-mir-3115 (structured_RNA) RNA: GGGAACCGCAAUCGAGCAAAGCUAACUGGGUGUACGAAGUUUCAGCUGGUGGUGAAUUCAUGAGUCGCCAGCUGAAGCUUCGUGCAC,-0.503,1.71,0.993
hsa-mir-628 (structured_RNA) RNA: GGGAAAAGAGGGCACCAGAUGUAUUGUCGGUGUACGAAGUUUCAGCUAGAGGGUAAAAUUAAUAACCUUCUAGCUGAAGCUUCGUGCAC,-0.504,0.577,-0.014
hsa-mir-3689a (structured_RNA) RNA: GGGACUUUUGAGCAGGGAGUACGUAUAAGGUGUACGAAGUUUCAGCCUGGGAGGUGUGAUCCUGUGCUUCCUGGGCUGAAGCUUCGUGCAC,-0.51,0.169,-0.277
hsa-mir-876 (structured_RNA) RNA: GGGAACUGAGUGGCUAUGUCGAACUCGAGGUGUACGAAGUUUCAGCACCAUAUCUAAGCUAAUGUGGUGGUGCUGAAGCUUCGUGCAC,-0.512,-1.51,-1.37
hsa-mir-548at (structured_RNA) RNA: GGGACGUGUCCAAUAAUAUCGCCUCGCAGGUGUACGAAGUUUCAGCUUUGGCUGCCAAAAGAAAUGGCCAAAGCUGAAGCUUCGUGCAC,-0.515,-0.139,-1.08
hsa-mir-133a-1 (structured_RNA) RNA: GGGAAUGUCACGGAGGGAGCUCAACUACGGUGUACGAAGUUUCAGCCAAAUCGCCUCUUCAAUGGAUUUGGCUGAAGCUUCGUGCAC,-0.515,0.175,0.461
hsa-mir-7846 (structured_RNA) RNA: GGGAAAACUCUAGAGGUCGAAACUCCGAGGUGUACGAAGUUUCAGCGCUGGGGCGCGGGCUUUCGCUUUCAGUCGAGGGCUAGCGAGCGCAGCGCUGAAGCUUCGUGCAC,-0.517,-0.299,0.44
hsa-mir-4755 (structured_RNA) RNA: GGGAGUACAGAGUGUAGCUAGCUCGCCCGGUGUACGAAGUUUCAGCGGCUUUGGCAUCUAUGAAAGCCGCUGAAGCUUCGUGCAC,-0.517,-1.87,-0.725
NEAT1_ParasoR_ID18 (structured_RNA) RNA: GGGAAAAUCAUGCGUGAUCCACCUAUGCGGUGUACGAAGUUUCAGCUGGAACUGGGGUAAAACUGCGUAGUGGCUGCAGCUGCCUGUCCAGCUGAAGCUUCGUGCAC,-0.518,0.00105,-0.847
hsa-mir-625 (structured_RNA) RNA: GGGAACACUGCAGCCGAAUCGAACAGACGGUGUACGAAGUUUCAGCAGUCCUGUAAUUAGAUCUCAGGACUGCUGAAGCUUCGUGCAC,-0.519,1.3,-0.722
hsa-mir-4504 (structured_RNA) RNA: GGGAAAUAAGCAAGGAGCCCGUAUGUUAGGUGUACGAAGUUUCAGCCAUUUGUGGCAUGGACCAUUUGUGGCUGAAGCUUCGUGCAC,-0.519,1.02,-0.0311
hsa-mir-548k (structured_RNA) RNA: GGGAAUGACGUUGUGGUUCAGCUGCCACGGUGUACGAAGUUUCAGCUGCUUUACUUUUAAUGGCAGCUGAAGCUUCGUGCAC,-0.519,-0.4,-0.915
hsa-mir-548ay (structured_RNA) RNA: GGGACUAUCUGCAGAAGGGAUCUAGUUGGGUGUACGAAGUUUCAGCUUUUGCAUUUAAAGUAAUGGCCAAAGCUGAAGCUUCGUGCAC,-0.52,0.151,0.548
